Measured values: ChEMBL document CHEMBL4765390, “Discovery of carboxyl-containing biaryl ureas as potent RORγt inverse agonists” (Eur J Med Chem, 2020)

What was measured:
[1] = target: T1, Nuclear receptor ROR-gamma (Mus musculus) (UniProt P51450); experiment: Inverse agonist activity at RORgammat in mouse CD4+ T cells assessed as inhibition of differentiation into Th17 cells by measuring IL-17 production at 0.3 uM by flow cytometry relative to control; format: cell-based; settings: CD4+ve Th, filed as inverse agonist
T1 sequence (whole entry): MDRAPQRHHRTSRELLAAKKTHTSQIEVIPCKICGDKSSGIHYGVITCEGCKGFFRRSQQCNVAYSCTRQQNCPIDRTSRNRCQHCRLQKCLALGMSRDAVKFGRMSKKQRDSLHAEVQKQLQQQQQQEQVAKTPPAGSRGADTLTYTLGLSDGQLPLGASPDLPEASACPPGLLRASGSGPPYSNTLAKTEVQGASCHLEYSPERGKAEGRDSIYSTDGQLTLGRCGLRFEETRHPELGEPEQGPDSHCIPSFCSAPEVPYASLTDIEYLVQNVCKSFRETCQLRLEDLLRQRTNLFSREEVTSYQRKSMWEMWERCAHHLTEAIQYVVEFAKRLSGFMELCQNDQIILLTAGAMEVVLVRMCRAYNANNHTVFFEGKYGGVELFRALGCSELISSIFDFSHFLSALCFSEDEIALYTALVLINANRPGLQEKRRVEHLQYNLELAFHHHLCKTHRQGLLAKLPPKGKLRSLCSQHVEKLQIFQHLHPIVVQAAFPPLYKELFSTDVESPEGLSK

Mus musculus [2] = experiment: Protection against imiquimod-induced psoriasis in BALB/c mouse model assessed as reduction of skin scaling at 25 mg/kg, po dosed twice daily relative to control; format: functional, organism-based
Mus musculus [3] = experiment: Protection against imiquimod-induced psoriasis in BALB/c mouse model assessed as reduction in ear erythema at 25 mg/kg, po dosed twice daily relative to control; format: functional, organism-based
Mus musculus [4] = experiment: Protection against imiquimod-induced psoriasis in BALB/c mouse model assessed as reduction in back skin erythema at 25 mg/kg, po dosed twice daily relative to control; format: functional, organism-based

Structure (SMILES): CCS(=O)(=O)c1ccc(CC(=O)Nc2cc(Cl)c(-c3ccccc3OC(F)(F)F)c(Cl)c2)cc1
- inhibition [1]: 84%

Structure (SMILES): O=C(O)Cc1ccc(CNC(=O)Nc2cc(Cl)c(-c3ccccc3OC(F)(F)F)c(Cl)c2)cc1
- inhibition [1]: 76%
- Activity (Mus musculus [2]): Active
- Activity (Mus musculus [3]): Active
- Activity (Mus musculus [4]): Active

Activity calls are given as the source filed them. No cut-off for these calls is given here.
